One experiment deals with MAGL (Homo sapiens, UniProt Q99685). Kind of experiment: hMAGL coumarin substrate fluorescence assay. In kind it is biochemical. Details: The N-terminal his-tagged full length human monoacylglycerol lipase used; His (N); made in house; host or cells: E. coli.
A further experiment concerns the target T1, rFAAH (Rattus norvegicus, UniProt P97612).
T1 construct: His (N); made in house; host or cells: E. coli (cell line provided by the Cravatt group)
Kind of experiment: rFAAH coumarin substrate fluorescence assay. In kind it is biochemical.

The chains behind the UniProt entries cited, without tags or fusion partners. Residues count along the entry.
UniProt Q99685, whole entry: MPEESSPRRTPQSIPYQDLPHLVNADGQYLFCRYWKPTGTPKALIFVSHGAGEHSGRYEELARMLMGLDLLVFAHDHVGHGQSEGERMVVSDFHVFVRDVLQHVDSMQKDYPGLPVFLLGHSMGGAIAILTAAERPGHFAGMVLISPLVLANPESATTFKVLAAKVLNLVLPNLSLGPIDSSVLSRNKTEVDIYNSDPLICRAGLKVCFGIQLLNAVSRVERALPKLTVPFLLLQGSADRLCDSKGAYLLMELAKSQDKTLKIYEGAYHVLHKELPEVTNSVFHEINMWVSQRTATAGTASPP
UniProt P97612, 30-579 limits assumed: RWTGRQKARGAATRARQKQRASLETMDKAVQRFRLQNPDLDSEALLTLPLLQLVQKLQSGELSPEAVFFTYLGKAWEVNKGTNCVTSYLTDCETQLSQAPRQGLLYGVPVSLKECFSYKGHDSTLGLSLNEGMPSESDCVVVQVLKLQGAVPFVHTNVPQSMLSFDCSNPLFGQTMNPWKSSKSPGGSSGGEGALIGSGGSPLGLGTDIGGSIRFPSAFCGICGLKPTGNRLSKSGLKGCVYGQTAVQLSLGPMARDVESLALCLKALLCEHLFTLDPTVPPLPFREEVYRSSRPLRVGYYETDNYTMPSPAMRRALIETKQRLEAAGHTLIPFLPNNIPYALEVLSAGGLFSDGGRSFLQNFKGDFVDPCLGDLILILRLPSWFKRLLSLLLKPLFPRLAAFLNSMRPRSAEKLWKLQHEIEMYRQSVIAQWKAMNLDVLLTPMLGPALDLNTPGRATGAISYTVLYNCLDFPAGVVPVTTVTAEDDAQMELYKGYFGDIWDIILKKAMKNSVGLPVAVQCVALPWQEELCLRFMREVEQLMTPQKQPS

Experiment [1] addresses T2, hDAGLα (Homo sapiens, UniProt Q9Y4D2).
T2 sequence (Q9Y4D2 1-1042): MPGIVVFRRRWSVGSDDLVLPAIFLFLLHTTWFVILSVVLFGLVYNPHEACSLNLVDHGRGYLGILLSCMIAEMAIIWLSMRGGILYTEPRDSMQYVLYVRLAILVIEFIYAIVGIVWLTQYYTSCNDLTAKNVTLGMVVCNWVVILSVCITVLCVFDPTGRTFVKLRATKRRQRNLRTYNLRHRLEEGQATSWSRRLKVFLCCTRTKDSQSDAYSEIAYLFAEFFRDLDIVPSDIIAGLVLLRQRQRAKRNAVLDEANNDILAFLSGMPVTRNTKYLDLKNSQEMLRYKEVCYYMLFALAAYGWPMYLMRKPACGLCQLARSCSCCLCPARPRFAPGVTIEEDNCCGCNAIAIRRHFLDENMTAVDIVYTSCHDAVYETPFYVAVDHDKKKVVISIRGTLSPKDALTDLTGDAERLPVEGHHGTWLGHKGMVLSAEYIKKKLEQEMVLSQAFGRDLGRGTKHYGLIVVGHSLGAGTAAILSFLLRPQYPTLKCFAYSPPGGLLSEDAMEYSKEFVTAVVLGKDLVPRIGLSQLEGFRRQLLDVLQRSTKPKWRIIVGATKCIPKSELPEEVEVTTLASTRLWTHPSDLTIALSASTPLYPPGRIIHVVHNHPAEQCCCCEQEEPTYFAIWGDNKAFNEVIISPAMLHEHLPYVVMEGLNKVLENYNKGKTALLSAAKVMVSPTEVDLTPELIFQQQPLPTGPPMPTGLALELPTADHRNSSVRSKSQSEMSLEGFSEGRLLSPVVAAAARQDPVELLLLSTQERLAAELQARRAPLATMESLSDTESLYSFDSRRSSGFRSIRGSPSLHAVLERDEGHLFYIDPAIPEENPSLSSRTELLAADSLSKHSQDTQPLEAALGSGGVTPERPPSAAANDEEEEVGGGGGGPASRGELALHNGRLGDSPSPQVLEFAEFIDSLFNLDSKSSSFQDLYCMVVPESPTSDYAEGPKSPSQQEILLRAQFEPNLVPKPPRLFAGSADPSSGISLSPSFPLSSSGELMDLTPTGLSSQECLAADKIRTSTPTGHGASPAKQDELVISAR

Experiment [2] deals with T2, hDAGLα. The source holds these as a separate data set.
The target in experiment [3] is T3, Pancreatic Lipase (Porcine) (Sus scrofa, UniProt P00591).
T3 construct: purchased Sigma L3126
T3 sequence (P00591 1-450): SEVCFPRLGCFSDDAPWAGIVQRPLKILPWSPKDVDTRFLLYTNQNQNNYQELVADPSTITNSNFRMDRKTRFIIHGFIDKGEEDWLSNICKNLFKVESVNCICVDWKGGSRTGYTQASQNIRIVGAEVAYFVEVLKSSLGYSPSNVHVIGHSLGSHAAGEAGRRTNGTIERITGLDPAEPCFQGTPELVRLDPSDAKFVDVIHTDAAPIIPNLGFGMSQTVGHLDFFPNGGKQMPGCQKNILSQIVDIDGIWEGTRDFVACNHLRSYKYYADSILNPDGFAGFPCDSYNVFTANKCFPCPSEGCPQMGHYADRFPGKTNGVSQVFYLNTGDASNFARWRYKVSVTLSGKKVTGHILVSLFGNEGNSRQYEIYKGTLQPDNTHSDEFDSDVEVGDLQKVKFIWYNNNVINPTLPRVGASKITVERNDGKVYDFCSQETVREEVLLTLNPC
In kind it is biochemical.

The target of a further experiment is T4, mDAGLα (Mus musculus, UniProt Q6WQJ1).
T4 sequence (Q6WQJ1 1-1044): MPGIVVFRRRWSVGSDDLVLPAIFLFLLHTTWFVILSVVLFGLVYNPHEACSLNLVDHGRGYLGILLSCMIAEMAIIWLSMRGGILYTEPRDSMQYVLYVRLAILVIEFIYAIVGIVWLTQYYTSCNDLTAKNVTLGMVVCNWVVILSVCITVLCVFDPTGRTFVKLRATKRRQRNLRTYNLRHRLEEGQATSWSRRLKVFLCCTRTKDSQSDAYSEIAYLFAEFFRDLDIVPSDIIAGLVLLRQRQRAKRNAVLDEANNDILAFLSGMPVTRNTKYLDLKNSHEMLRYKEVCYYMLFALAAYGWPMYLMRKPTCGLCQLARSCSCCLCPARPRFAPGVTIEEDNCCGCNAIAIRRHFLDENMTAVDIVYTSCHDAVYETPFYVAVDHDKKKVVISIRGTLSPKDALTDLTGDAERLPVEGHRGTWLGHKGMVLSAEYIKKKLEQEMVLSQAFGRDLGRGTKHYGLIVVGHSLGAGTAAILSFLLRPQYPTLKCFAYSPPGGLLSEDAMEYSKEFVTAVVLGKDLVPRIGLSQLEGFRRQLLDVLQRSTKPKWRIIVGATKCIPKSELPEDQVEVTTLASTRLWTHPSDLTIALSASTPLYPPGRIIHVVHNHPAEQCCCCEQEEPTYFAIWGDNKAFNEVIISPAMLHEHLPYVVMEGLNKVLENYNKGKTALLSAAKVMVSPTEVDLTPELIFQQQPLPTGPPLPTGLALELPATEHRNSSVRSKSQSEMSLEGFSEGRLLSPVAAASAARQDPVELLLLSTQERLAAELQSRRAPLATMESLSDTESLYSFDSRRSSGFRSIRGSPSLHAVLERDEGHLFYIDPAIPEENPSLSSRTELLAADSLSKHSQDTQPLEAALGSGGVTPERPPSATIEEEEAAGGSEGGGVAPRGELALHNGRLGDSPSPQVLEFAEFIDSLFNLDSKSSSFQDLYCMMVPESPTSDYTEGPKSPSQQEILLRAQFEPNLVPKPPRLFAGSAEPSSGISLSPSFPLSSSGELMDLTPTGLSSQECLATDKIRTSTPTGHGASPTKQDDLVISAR
Description: Radio-TLC assay with [14C]SAG substrate, mDAGLα.

As for `O=S(=O)(F)Cc1ccccc1` [PMSF, phenylmethylsulfonylfluoride], the “hMAGL inhibition at 10 μM (%)” value at MAGL came out at 5%. For the same compound, on rFAAH, the “rFAAH inhibition at 10 μM (%)” value was 100^E %. Besides, the “hDAGLα inhibition at 10 μM TLC detergent free (%)” value on hDAGLα [1] worked out at 19%. Also, at hDAGLα [2], the “hDAGLα inhibition at 10 μM detergent free (%), FRET, marker °” value stood at 8° %. In addition, the “Pancreatic Lipase (Porcine) inhibition at 10 μM (%)” value in experiment [3] turned out to be 17%.

Turning to `CCCCCCCCCCCCCCCCS(=O)(=O)F` [n-C16H33SO2F, Palmitylsulfonyl fluoride], the “mDAGLα inhibition at 1000 nM (%)” value on mDAGLα (1000 nM) was 18%. For the same compound, the “mDAGLα inhibition at 10000 nM (%)” value at mDAGLα (10000 nM) is given as 64%. At hDAGLα [2], the “hDAGLα inhibition at 10 μM detergent free (%), FRET” value is listed as 40, 94° % and the “hDAGLα inhibition at 10 μM detergent free (%), FRET, marker °” value is recorded as 40, 94° %. Also, in experiment [3], the “Pancreatic Lipase (Porcine) inhibition at 10 μM (%)” value came out at 29%.

The values above are taken from patent publication US20150099800A1, “NOVEL LIPASE INHIBITORS, REPORTER SUBSTRATES AND USES THEREOF” (Northeastern University, priority 2012, published 2015).
